Results from PubChem BioAssay (NCI).
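Five concentrations, 48 hours, 96-well plates. At the GI50, growth is halved. TGI: total growth inhibition.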

Experiments:
Assay in all cases: growth of human tumour cells (NCI), 48 h
[1] = system: DU-145 prostate
[2] = system: SNB-75 CNS
[3] = system: KM12 colon
[4] = system: HCT-116 colon
[5] = system: A549 NSCLC
[6] = system: CAKI-1 renal
[7] = system: ACHN renal
[8] = system: SF-295 CNS
[9] = system: TK-10 renal
[10] = system: UACC-257 melanoma
[11] = system: SF-539 CNS
[12] = system: OVCAR-8 ovarian
[13] = system: MDA-MB-231 breast
[14] = system: UACC-62 melanoma
[15] = system: U251 CNS
[16] = system: 786-0 renal
[17] = system: SK-MEL-5 melanoma
[18] = system: SF-268 CNS
[19] = system: HOP-62 NSCLC
[20] = system: MDA-N
[21] = system: COLO 205 colon
[22] = system: A498 renal
[23] = system: HT29 colon
[24] = system: T-47D breast
[25] = system: RXF 393 renal
[26] = system: PC-3 prostate
[27] = system: OVCAR-3 ovarian
[28] = system: NCI-H23 lung
[29] = system: NCI-H460 lung
[30] = system: NCI-H322M lung
[31] = system: HS 578T breast
[32] = system: SW-620 colon
[33] = system: SNB-19 CNS
[34] = system: LOX IMVI melanoma
[35] = system: BT-549 breast
[36] = system: RPMI-8226 leukemia
[37] = system: SK-MEL-28 melanoma
[38] = system: OVCAR-4 ovarian
[39] = system: HCT-15 colon
[40] = system: SN12C renal
[41] = system: SK-MEL-2 melanoma
[42] = system: IGROV1 ovarian
[43] = system: HOP-92 NSCLC
[44] = system: MALME-3M melanoma
[45] = system: OVCAR-5 ovarian
[46] = system: M14 melanoma
[47] = system: NCI-H226 lung
[48] = system: NCI-H522 lung
[49] = system: EKVX NSCLC
[50] = system: NCI/ADR-RES ovarian
[51] = system: MDA-MB-435
[52] = system: MCF7 breast
[53] = system: SK-OV-3 ovarian
[54] = system: UO-31 renal
[55] = system: K-562 leukemia

Structure (SMILES): N1=C(c2nnc(-c3nn[nH]n3)nn2)NNN1
- GI50 [1]: > 100 µM
- TGI [1]: > 100 µM
- GI50 [2]: > 100 µM
- TGI [2]: > 100 µM
- GI50 [3]: > 100 µM
- TGI [3]: > 100 µM
- GI50 [4]: > 100 µM
- TGI [4]: > 100 µM
- GI50 [5]: > 100 µM
- TGI [5]: > 100 µM
- GI50 [6]: > 100 µM
- TGI [6]: > 100 µM
- GI50 [7]: > 100 µM
- TGI [7]: > 100 µM
- GI50 [8]: > 100 µM
- TGI [8]: > 100 µM
- GI50 [9]: > 100 µM
- TGI [9]: > 100 µM
- GI50 [10]: > 100 µM
- TGI [10]: > 100 µM
- GI50 [11]: > 100 µM
- TGI [11]: > 100 µM
- GI50 [12]: > 100 µM
- TGI [12]: > 100 µM
- GI50 [13]: > 100 µM
- TGI [13]: > 100 µM
- GI50 [14]: > 100 µM
- TGI [14]: > 100 µM
- GI50 [15]: > 100 µM
- TGI [15]: > 100 µM
- GI50 [16]: > 100 µM
- TGI [16]: > 100 µM
- GI50 [17]: > 100 µM
- TGI [17]: > 100 µM
- GI50 [18]: > 100 µM
- TGI [18]: > 100 µM
- GI50 [19]: > 100 µM
- TGI [19]: > 100 µM
- GI50 [20]: > 100 µM
- TGI [20]: > 100 µM
- GI50 [21]: > 100 µM
- TGI [21]: > 100 µM
- GI50 [22]: > 100 µM
- TGI [22]: > 100 µM
- GI50 [23]: > 100 µM
- TGI [23]: > 100 µM
- GI50 [24]: > 100 µM
- TGI [24]: > 100 µM
- GI50 [25]: > 100 µM
- TGI [25]: > 100 µM
- GI50 [26]: > 100 µM
- TGI [26]: > 100 µM
- GI50 [27]: > 100 µM
- TGI [27]: > 100 µM
- GI50 [28]: > 100 µM
- TGI [28]: > 100 µM
- GI50 [29]: > 100 µM
- TGI [29]: > 100 µM
- GI50 [30]: > 100 µM
- TGI [30]: > 100 µM
- GI50 [31]: > 100 µM
- TGI [31]: > 100 µM
- GI50 [32]: > 100 µM
- TGI [32]: > 100 µM
- GI50 [33]: > 100 µM
- TGI [33]: > 100 µM
- GI50 [34]: 43.6 µM
- TGI [34]: > 100 µM
- GI50 [35]: > 100 µM
- TGI [35]: > 100 µM
- GI50 [36]: > 100 µM
- TGI [36]: > 100 µM
- GI50 [37]: > 100 µM
- TGI [37]: > 100 µM
- GI50 [38]: > 100 µM
- TGI [38]: > 100 µM
- GI50 [39]: > 100 µM
- TGI [39]: > 100 µM
- GI50 [40]: > 100 µM
- TGI [40]: > 100 µM
- GI50 [41]: > 100 µM
- TGI [41]: > 100 µM
- GI50 [42]: > 100 µM
- TGI [42]: > 100 µM
- GI50 [43]: > 100 µM
- TGI [43]: > 100 µM
- GI50 [44]: > 100 µM
- TGI [44]: > 100 µM
- GI50 [45]: > 100 µM
- TGI [45]: > 100 µM
- GI50 [46]: > 100 µM
- TGI [46]: > 100 µM
- GI50 [47]: > 100 µM
- TGI [47]: > 100 µM
- GI50 [48]: > 100 µM
- TGI [48]: > 100 µM
- GI50 [49]: > 100 µM
- TGI [49]: > 100 µM
- GI50 [50]: > 100 µM
- TGI [50]: > 100 µM
- GI50 [51]: > 100 µM
- TGI [51]: > 100 µM
- GI50 [52]: > 100 µM
- TGI [52]: > 100 µM
- GI50 [53]: > 100 µM
- TGI [53]: > 100 µM
- GI50 [54]: > 100 µM
- TGI [54]: > 100 µM
- GI50 [55]: > 100 µM
- TGI [55]: > 100 µM
